Data reported in patent US8513236B2 (Laurus Labs Private Limited, priority 2010, dated 2013).
Marks after values point to notes of the source that are not given here.

What was measured:
[1] = Relative humidity stability at ambient temperature, analyzed by XRPD; type: physicochemical
[2] = concentration measurement at ~5 hours, slurry in water at ambient
[3] = Slurrying in water, resulting solid form; type: physicochemical; conditions: three days

| Results ([1]; 75% RH, 1 week) | Results ([1]; 75% RH, 4 weeks) | Results ([1]; 75% RH, 1 day) | Results ([1]; 75% RH, 3 days) | Results ([1]; 94% RH, 1 week (7 days)) | Results ([1]; 94% RH, 4 weeks) | Results ([1]; 94% RH, 1 day) | Results ([1]; 94% RH, 3 days) | Results ([1]; 98% RH, 1 week) | Results ([1]; 98% RH, 4 weeks) | Results ([1]; 98% RH, 1 day) | Results ([1]; 98% RH, 3 days) | Solubility (±standard deviation) [2] | result of slurrying in water [3] | Substance |
| --- | --- | --- | --- | --- | --- | --- | --- | --- | --- | --- | --- | --- | --- | --- |
| cocrystal 2, no carbamazepine dihydrate | cocrystal 2, no carbamazepine dihydrate | cocrystal 2, no carbamazepine dihydrate | cocrystal 2, no carbamazepine dihydrate | cocrystal 2, no carbamazepine dihydrate | cocrystal 2, no carbamazepine dihydrate | cocrystal 2, no carbamazepine dihydrate | cocrystal 2, no carbamazepine dihydrate | cocrystal 2, no carbamazepine dihydrate | cocrystal 2, no carbamazepine dihydrate | cocrystal 2, no carbamazepine dihydrate | cocrystal 2, no carbamazepine dihydrate |  |  | pterostilbene:carbamazepine [cocrystal 2] |
|  |  |  |  |  |  |  |  |  |  |  |  | 123 ± 6^b μg/mL | precipitation of pterostilbene | pterostilbene:piperazine [cocrystal 4] |
